# Membrane permeability of cyclic peptides

Source: CycPeptMPDB (Li et al. 2023), which took these values from Townsend et al. 2020, doi:10.26434/chemrxiv.13335941.v1.

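Conditions beyond the assay type are not listed; see the original paper. The list need not hold all peptides of the study. Peptides that the database sets to -10, its floor, are left out.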

PAMPA is the parallel artificial membrane permeability assay, which has no cells and reads passive diffusion. P is given in units of 10^-6 cm/s (from log10 values with two decimals); larger means faster passage.

CC(C)C[C@H]1C(=O)N[C@@H](Cc2ccccc2)CC(=O)N2CCC[C@H]2C(=O)N(C)[C@@H](CC(C)C)C(=O)N[C@@H](Cc2ccccc2)C(=O)N[C@@H](Cc2ccccc2)CC(=O)N1C has PAMPA 4.8 × 10^-6 cm/s. Listed for CC(C)C[C@@H]1C(=O)N(C)[C@H](CC(C)C)C(=O)N2CCC[C@H]2C(=O)N[C@H](CC(C)C)C(=O)N[C@@H](Cc2ccccc2)C(=O)N[C@@H](Cc2ccccc2)CC(=O)N1C: PAMPA 6 × 10^-6 cm/s. CCCN1CC(=O)N(Cc2ccccc2)CC(=O)N[C@H](CC(C)C)C(=O)N2CCC[C@H]2C(=O)N[C@H](CC(C)C)C(=O)N[C@@H](Cc2ccccc2)C1=O is reported with PAMPA 3.5 × 10^-6 cm/s. The entry for CC(C)C[C@H]1C(=O)N[C@@H](Cc2ccccc2)C(=O)N(C)[C@@H](C)C(=O)N(Cc2ccccc2)CC(=O)N[C@@H](Cc2ccccc2)CC(=O)N2CCC[C@H]2C(=O)N1C lists PAMPA 5.2 × 10^-6 cm/s. Listed for CC(C)C[C@@H]1C(=O)N2CCC[C@H]2C(=O)N(C)[C@H](CC(C)C)C(=O)N[C@@H](Cc2ccccc2)C(=O)N(C)[C@H](C)C(=O)N(Cc2ccccc2)CC(=O)N1C: PAMPA 11 × 10^-6 cm/s.

The entry for CC(C)C[C@@H]1C(=O)N[C@@H](Cc2ccccc2)C(=O)N2CCC[C@H]2C(=O)N[C@H](C)C(=O)N(Cc2ccccc2)CC(=O)N(C)[C@@H](CC(C)C)C(=O)N2CCC[C@H]2C(=O)N1C lists PAMPA 5.8 × 10^-6 cm/s. Listed for CC(C)C[C@@H]1NC(=O)C[C@H](Cc2ccccc2)NC(=O)[C@H]2CCCN2C(=O)[C@H](Cc2ccccc2)NC(=O)CN(Cc2ccccc2)C(=O)[C@@H]2CCCN2C(=O)CN(Cc2ccccc2)C1=O: PAMPA 1.7 × 10^-6 cm/s. CC(C)C[C@H]1C(=O)N(Cc2ccccc2)CC(=O)N2CCC[C@@H]2C(=O)N(Cc2ccccc2)CC(=O)N[C@@H](Cc2ccccc2)C(=O)N[C@@H](Cc2ccccc2)CC(=O)N1C has PAMPA 1.5 × 10^-6 cm/s. The entry for CCCN1CC(=O)N[C@H](CC(C)C)C(=O)N(C)[C@H](CC(C)C)C(=O)N2CCC[C@H]2C(=O)N(C)[C@H](CC(C)C)C(=O)N[C@@H](Cc2ccccc2)C1=O lists PAMPA 15 × 10^-6 cm/s. Listed for C[C@H]1C(=O)N(Cc2ccccc2)CC(=O)N(Cc2ccccc2)CC(=O)N2CCC[C@@H]2C(=O)N(Cc2ccccc2)CC(=O)N[C@@H](Cc2ccccc2)C(=O)N1C: PAMPA 0.6 × 10^-6 cm/s.

The entry for CC(C)C[C@H]1C(=O)N[C@@H](Cc2ccccc2)CC(=O)N2CCC[C@@H]2C(=O)N(Cc2ccccc2)CC(=O)N[C@@H](Cc2ccccc2)C(=O)N(C)[C@@H](C)C(=O)N1C lists PAMPA 3.5 × 10^-6 cm/s. CC(C)C[C@@H]1NC(=O)[C@H](CC(C)C)N(C)C(=O)C[C@H](Cc2ccccc2)NC(=O)[C@@H]2CCCN2C(=O)[C@H](Cc2ccccc2)NC(=O)CN(Cc2ccccc2)C(=O)[C@H]2CCCN2C1=O has PAMPA 4.7 × 10^-6 cm/s. Listed for CCCN1CC(=O)N(C)[C@H](CC(C)C)C(=O)N[C@@H](Cc2ccccc2)CC(=O)N2CCC[C@H]2C(=O)N[C@@H](CC(C)C)C(=O)N[C@@H](Cc2ccccc2)C1=O: PAMPA 2.8 × 10^-6 cm/s. Listed for C[C@@H]1C(=O)N(Cc2ccccc2)CC(=O)N(Cc2ccccc2)CC(=O)N2CCC[C@H]2C(=O)N(Cc2ccccc2)CC(=O)N[C@@H](Cc2ccccc2)C(=O)N1C: PAMPA 0.78 × 10^-6 cm/s. For CC(C)C[C@H]1C(=O)N(C)[C@@H](CC(C)C)C(=O)N2CCC[C@H]2C(=O)N(Cc2ccccc2)CC(=O)N[C@@H](Cc2ccccc2)C(=O)N2CCC[C@H]2C(=O)N[C@@H](Cc2ccccc2)CC(=O)N1C the data give PAMPA 3.2 × 10^-6 cm/s.

Listed for C[C@H]1C(=O)N(Cc2ccccc2)CC(=O)N[C@@H](Cc2ccccc2)CC(=O)N2CCC[C@H]2C(=O)N(Cc2ccccc2)CC(=O)N[C@@H](Cc2ccccc2)C(=O)N2CCC[C@@H]2C(=O)N1C: PAMPA 0.85 × 10^-6 cm/s.